{"sequences": {"note": "Chains of the proteins cited; added tags and fusions are not shown.", "UniProt P08588, whole entry S49G": "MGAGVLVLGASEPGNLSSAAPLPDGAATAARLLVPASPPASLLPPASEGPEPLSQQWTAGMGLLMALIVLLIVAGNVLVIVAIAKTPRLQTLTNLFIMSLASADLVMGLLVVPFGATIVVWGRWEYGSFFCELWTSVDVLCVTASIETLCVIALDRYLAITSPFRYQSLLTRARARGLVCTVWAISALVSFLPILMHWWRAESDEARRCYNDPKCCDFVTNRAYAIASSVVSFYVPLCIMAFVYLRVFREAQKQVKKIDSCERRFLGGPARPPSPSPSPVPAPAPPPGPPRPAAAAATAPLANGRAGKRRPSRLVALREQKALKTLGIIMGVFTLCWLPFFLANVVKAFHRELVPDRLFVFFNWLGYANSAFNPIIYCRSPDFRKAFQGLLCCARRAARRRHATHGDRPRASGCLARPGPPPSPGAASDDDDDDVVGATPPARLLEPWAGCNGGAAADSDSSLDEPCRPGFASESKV", "UniProt P08588, whole entry": "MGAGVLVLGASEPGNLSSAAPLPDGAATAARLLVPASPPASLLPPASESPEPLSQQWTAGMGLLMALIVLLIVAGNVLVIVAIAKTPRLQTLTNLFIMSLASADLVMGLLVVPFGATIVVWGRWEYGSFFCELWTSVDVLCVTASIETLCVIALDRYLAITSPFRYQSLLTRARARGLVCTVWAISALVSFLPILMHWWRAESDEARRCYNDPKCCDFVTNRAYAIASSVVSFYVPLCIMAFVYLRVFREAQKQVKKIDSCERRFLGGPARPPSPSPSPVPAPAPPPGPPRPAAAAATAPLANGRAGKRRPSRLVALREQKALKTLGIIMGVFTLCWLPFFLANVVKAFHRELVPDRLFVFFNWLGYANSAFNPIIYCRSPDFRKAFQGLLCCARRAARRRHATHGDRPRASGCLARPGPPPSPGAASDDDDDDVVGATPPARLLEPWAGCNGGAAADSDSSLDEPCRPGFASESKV", "UniProt P08588, whole entry G389R": "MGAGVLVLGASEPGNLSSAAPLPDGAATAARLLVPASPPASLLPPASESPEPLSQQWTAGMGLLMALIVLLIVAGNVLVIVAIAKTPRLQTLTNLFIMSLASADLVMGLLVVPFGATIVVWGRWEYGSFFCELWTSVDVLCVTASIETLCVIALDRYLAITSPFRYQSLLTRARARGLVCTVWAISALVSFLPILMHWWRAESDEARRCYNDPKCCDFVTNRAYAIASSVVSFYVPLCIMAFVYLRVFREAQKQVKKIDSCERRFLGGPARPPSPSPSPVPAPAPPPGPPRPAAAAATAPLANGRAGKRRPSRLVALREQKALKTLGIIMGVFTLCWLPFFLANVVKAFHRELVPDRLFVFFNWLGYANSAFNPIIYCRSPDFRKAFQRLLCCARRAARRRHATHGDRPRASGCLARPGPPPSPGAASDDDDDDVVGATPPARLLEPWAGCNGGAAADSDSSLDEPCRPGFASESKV"}, "source": "paper PMC3826719", "about": "“Impact of Polymorphic Variants on the Molecular Pharmacology of the Two-Agonist Conformations of the Human β1-Adrenoceptor” (PLoS ONE, 2013)", "key": {"[1]": {"biological_target": "T1, human β1-adrenoceptor polymorphic variant Gly49/Gly389 (Homo sapiens, UniProt P08588, S49G)", "settings": "Log EC50, 3H-cAMP accumulation, main stable Gly49/Gly389 cell line"}, "[2]": {"biological_target": "T2, human wildtype β1-adrenoceptor (Ser49/Gly389) (Homo sapiens, UniProt P08588)", "assay": "3H-cAMP accumulation, wildtype", "settings": "Log EC50, 3H-cAMP accumulation, main stable WT Ser49/Gly389 cell line"}, "[3]": {"biological_target": "T3, human β1-adrenoceptor polymorphic variant Ser49/Arg389 (Homo sapiens, UniProt P08588, G389R)", "assay": "cell-based", "settings": "Log KD"}, "[4]": {"biological_target": "T2, human wildtype β1-adrenoceptor (Ser49/Gly389)", "assay": "cell-based", "settings": "Log KD"}, "[5]": {"biological_target": "T3, human β1-adrenoceptor polymorphic variant Ser49/Arg389", "settings": "Log EC50, 3H-cAMP accumulation, main stable Ser49/Arg389 cell line"}, "[6]": {"biological_target": "T1, human β1-adrenoceptor polymorphic variant Gly49/Gly389", "assay": "cell-based", "settings": "Log KD"}}, "data": [{"smiles": "CNC[C@H](O)c1ccc(O)c(O)c1", "note": "[Adrenaline]", "values": [{"measurement": "EC50", "setting": "[1]", "result": 0.257, "unit": "µM"}, {"measurement": "EC50", "setting": "[2]", "result": 0.209, "unit": "µM"}, {"measurement": "Kd", "setting": "[3]; competition with 3H-CGP 12177, Ser49/Arg389 transiently transfected populations", "result": 28.8, "unit": "µM"}, {"measurement": "Kd", "setting": "[3]; competition with 3H-CGP 12177, additional stable Ser49/Arg389 cell line W81", "result": 2.88, "unit": "µM"}, {"measurement": "Kd", "setting": "[3]; competition with 3H-CGP 12177, additional stable Ser49/Arg389 cell line W93", "result": 11.2, "unit": "µM"}, {"measurement": "Kd", "setting": "[3]; competition with 3H-CGP 12177, whole cells, main stable CHO cell line Ser49/Arg389", "result": 4.68, "unit": "µM"}, {"measurement": "Kd", "setting": "[4]; competition with 3H-CGP 12177, WT transiently transfected populations", "result": 20.9, "unit": "µM"}, {"measurement": "Kd", "setting": "[4]; competition with 3H-CGP 12177, additional stable WT cell line T3", "result": 23.4, "unit": "µM"}, {"measurement": "Kd", "setting": "[4]; competition with 3H-CGP 12177, additional stable WT cell line T88", "result": 14.1, "unit": "µM"}, {"measurement": "Kd", "setting": "[4]; competition with 3H-CGP 12177, whole cells, main stable CHO cell line WT (Ser49/Gly389)", "result": 11, "unit": "µM"}, {"measurement": "EC50", "setting": "[5]", "result": 0.12, "unit": "µM"}, {"measurement": "Kd", "setting": "[6]; competition with 3H-CGP 12177, Gly49/Gly389 transiently transfected populations", "result": 25.7, "unit": "µM"}, {"measurement": "Kd", "setting": "[6]; competition with 3H-CGP 12177, additional stable Gly49/Gly389 cell line V6", "result": 7.76, "unit": "µM"}, {"measurement": "Kd", "setting": "[6]; competition with 3H-CGP 12177, additional stable Gly49/Gly389 cell line V87", "result": 10.2, "unit": "µM"}, {"measurement": "Kd", "setting": "[6]; competition with 3H-CGP 12177, whole cells, main stable CHO cell line Gly49/Gly389", "result": 11, "unit": "µM"}]}]}
